Tests used:
human TSPO [1] = target: T1, human TSPO (Homo sapiens, UniProt P30536); experiment: TSPO association/dissociation and competition kinetics with [3H]PK11195; type: binding
T1 construct: aliquots of U87MG cell membranes (20 μg of proteins) were incubated with [^3H]PK 11195 (1.5 nM); endogenous in cells; host or cells: U87MG human glioblastoma cell membranes
Method: Association kinetics for [^3H]PK11195 were determined incubating U87MG cell membranes (20 μg protein) with 1.5 nM radioligand at various time points up to a total of 3 h. Dissociation kinetics were determined by pre-equilibrating membranes and [^3H]PK11195 for 120 min and the adding a saturating concentration of cold PK11195 (1 μM).
Association and dissociation rate constants for [^3H] PK11195 binding were determined by global analysis of the association and dissociation binding curves according to mono-exponential association and decay curves. From this analysis an estimate of the dissociation (koff) and observed association (kobs) rates for ligand binding was generated; the association rate constant (kon) was determined according to the following relationship kobs = [A] kon + koff; ligand-receptor half-life was calculated as 0.693/koff.
For competition kinetics, the [^3H] PK11195 curves in the presence and absence of EB54 or EB148, were fitted using the equations in Dowling and Charlton.

The chains behind the UniProt entries cited, without tags or fusion partners.
UniProt P30536, whole entry: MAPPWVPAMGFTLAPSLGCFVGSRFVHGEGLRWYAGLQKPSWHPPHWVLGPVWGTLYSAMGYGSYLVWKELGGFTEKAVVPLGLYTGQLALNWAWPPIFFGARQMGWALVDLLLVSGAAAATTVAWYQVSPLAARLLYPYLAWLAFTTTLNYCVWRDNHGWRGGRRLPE

human TSPO [2] = target: T1, human TSPO; experiment: Equilibrium [3H]PK11195 radioligand binding assay in U87MG cell membranes
Method: Equilibrium radioligand binding assays were performed essentially as previously described. Briefly, aliquots of U87MG cell membranes (20 μg of proteins) were incubated with [^3H]PK 11195 (1.5 nM) in the presence (non-specific binding) or in the absence (total binding) of unlabelled PK 11195 (1 μM), in the final volume of 500 μl of assay buffer for 120 min at 0°C. Samples were rapidly filtered under vacuum through GF/C glass fiber filters. Radioactivity was measured by liquid scintillation counter (TopCount; PerkinElmer Life and Analytical Sciences; 65 % counting efficiency). In U87MG cell membranes, [^3H]PK11195 maximum number of binding sites (Bmax) and affinity (Kd) were determined in previous experiments by Scatchard analysis of saturation binding data.

CCC(C)N(C)C(=O)c1cc2ccccc2c(-c2ccccc2Cl)n1 (centres unmarked) [PK11195, reference compound]
Kd (human TSPO [1]): 2.89 nM | Ki (human TSPO [2]): 2.88 ± 0.13 nM

Source: article PMC4884960, “Long lasting MDM2/Translocator protein modulator: a new strategy for irreversible apoptosis of human glioblastoma cells” (Oncotarget, 2016)
